Reference: paper PMC5660261, “Binding and Signaling Studies Disclose a Potential Allosteric Site for Cannabidiol in Cannabinoid CB2 Receptors” (Frontiers in Pharmacology, 2017)

Sequences of proteins named here, by UniProt entry; tags and fusion partners are left off.
UniProt P34972, whole entry: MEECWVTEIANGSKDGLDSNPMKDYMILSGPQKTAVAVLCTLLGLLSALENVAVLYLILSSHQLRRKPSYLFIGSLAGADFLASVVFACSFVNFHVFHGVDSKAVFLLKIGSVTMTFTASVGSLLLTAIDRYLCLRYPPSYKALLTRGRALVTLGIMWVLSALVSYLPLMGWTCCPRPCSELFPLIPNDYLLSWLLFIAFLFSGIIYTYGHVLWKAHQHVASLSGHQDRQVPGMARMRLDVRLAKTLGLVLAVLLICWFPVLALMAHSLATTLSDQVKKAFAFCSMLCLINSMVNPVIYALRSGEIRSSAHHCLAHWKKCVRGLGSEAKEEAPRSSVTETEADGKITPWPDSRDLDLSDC

Key:
human CB2R [1] = target: T1, human CB2R (Homo sapiens, UniProt P34972); test: ERK1/2 phosphorylation (AlphaScreen SureFire) in HEK-293T-CB2R cells; assay type: cell-based; conditions: 100 nM JWH133, 7 min, 25°C, HEK-293T cells transfected with human CB2R; read-out: IC50 of the block of JWH133-triggered ERK1/2 phosphorylation
T1 construct: host or cells: HEK-293T, transient transfection, living cells

human CB2R [2] = target: T1, human CB2R; test: HTRF (Tag-lite) competition binding of red CB2R ligand in living HEK-293T cells expressing SNAP-CB2R; conditions: 100 nM red CB2R ligand, CBD 0–10 μM, partial competition, read-out: IC50 of competition of fluorescent agonist binding
human CB2R [3] = target: T1, human CB2R; test: Forskolin-induced intracellular cAMP determination in HEK-293T cells expressing CB2R; assay type: cell-based; conditions: 100 nM JWH133, 0.5 μM forskolin, HEK-293T cells expressing human CB2R; read-out: IC50 of the block of JWH133-induced decrease in forskolin-induced cAMP levels
Experimental: Two hours before initiating the experiment, growth medium was replaced by serum-free DMEM. Then, HEK-293T cells transiently expressing CB2R or GPR55 were detached and resuspended in growing medium containing 50 μM zardaverine and plated in 384-well microplates (2,500 cells/well), pretreated (15 min) with the corresponding antagonists—or vehicle—and stimulated with agonists (15 min) before adding 0.5 μM forskolin or vehicle. Readings were performed after 15 min of incubation at 25°C. HTRF measures were performed using the Lance Ultra cAMP kit (PerkinElmer, Waltham, MA, United States). Fluorescence at 665 nm was analyzed on a PHERAstar Flagship microplate reader equipped with an HTRF optical module (BMG Lab Technologies, Offenburg, Germany).

Compound C=C(C)[C@@H]1CCC(C)=C[C@H]1c1c(O)cc(CCCCC)cc1O [CBD, cannabidiol] has an IC50 (human CB2R [1]) of 29 ± 0.3 nM, an IC50 (human CB2R [2]) of 2 to 8 nM and an IC50 (human CB2R [3]) of 3 ± 0.4 nM.
